pKi: −log10 of the molar value. “And” between values parts separate entries of the source, which are not always exact repeats. Identical values can stand only once.
How the values were obtained:
Mu-type opioid receptor = Mu-type opioid receptor (Homo sapiens, UniProt P35372); experiment: Human Mu-Opioid Peptide (hMOP) Receptor Binding Assay: The hMOP receptor binding assay was performed as homogeneous SPA-assay (scintillation proximity assay) using the assay buffer 50 mM TRIS-HCl (pH 7.4) supplemented with […] bovine serum albumin (Sigma-Aldrich Co. St. Louis. Mo.). The final assay volume (250 l/well) included 1 nM of [N-allyl-2.3-3H]naloxone as ligand (PerkinElmer Life Sc
Nociceptin receptor = Nociceptin receptor (Homo sapiens, UniProt P41146); experiment: Human Nociceptin/Orphanin FQ Peptide (hNOP) Receptor Binding Assay: The hNOP receptor binding assay was performed as homogeneous SPA-assay (scintillation proximity assay) using the assay buffer 50 mM TRIS-HCl. 10 mM MgCl2. 1 mM EDTA (pH 7.4). The final assay volume (250 μl/well) included 0.5 nM of [leucyl-3H]nociceptin as ligand (PerkinElmer Life Sciences. Inc. Boston. Mass. USA). and either test

Amino acid sequences for entries named in this document (tags omitted). A change or cut given only in a name is not applied to a line headed by its entry.
UniProt P35372, whole entry, looked up: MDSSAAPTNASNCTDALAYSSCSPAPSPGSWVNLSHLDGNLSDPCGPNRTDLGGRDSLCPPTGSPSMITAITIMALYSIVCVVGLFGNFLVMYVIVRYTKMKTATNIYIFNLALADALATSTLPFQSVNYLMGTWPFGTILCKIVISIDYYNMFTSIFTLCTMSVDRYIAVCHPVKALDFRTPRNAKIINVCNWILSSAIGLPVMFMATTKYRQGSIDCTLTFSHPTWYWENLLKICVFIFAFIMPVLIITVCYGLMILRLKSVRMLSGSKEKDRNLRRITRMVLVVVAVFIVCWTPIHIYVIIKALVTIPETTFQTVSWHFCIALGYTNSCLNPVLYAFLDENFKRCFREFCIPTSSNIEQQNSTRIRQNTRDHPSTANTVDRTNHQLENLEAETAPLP
UniProt P41146: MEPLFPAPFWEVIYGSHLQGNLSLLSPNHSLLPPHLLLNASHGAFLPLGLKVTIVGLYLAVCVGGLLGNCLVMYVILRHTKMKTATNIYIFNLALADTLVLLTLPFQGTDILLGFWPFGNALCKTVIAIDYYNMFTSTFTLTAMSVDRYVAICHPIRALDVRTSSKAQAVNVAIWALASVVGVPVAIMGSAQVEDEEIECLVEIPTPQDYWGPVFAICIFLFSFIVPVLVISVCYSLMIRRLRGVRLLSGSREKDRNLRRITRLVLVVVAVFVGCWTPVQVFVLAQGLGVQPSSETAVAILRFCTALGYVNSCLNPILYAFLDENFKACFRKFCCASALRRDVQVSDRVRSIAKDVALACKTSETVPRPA

Row | SMILES | pKi (Mu-type opioid receptor) | pKi (Nociceptin receptor)
1 | CN(CC(N)=O)c1ncc(N2C[C@]3(CC[C@](c4ccccc4)(N(C)C)CC3)NC2=O)cn1 | 5.59 | 7.72
2 | CN(C)[C@]1(c2ccccc2)CC[C@]2(CC1)CN(c1cnc(N3CCNCC3)nc1)C(=O)N2 | 5.96 | 8.30
3 | CN(C)[C@]1(c2ccccc2)CC[C@]2(CC1)CN(c1ccc3c(c1)OCO3)C(=O)N2 | 5.91 | 7.82
4 | CN(C)[C@]1(c2ccccc2)CC[C@]2(CC1)CN(c1ccccc1C#N)C(=O)N2CC1(O)CCC1 | 6.77 | 8.09
5 | N[C@]1(c2ccccc2)CC[C@]2(CC1)CN(c1cnc(C(F)(F)F)nc1)C(=O)N2CC1(O)CCC1 | 5.51 | 6.27
6 | CN(C)[C@]1(c2ccccc2)CC[C@]2(CC1)CN(c1cnc(N3CCN(CC(N)=O)CC3)nc1)C(=O)N2 | 5.34 | 8.10
7 | CN[C@]1(c2ccccc2)CC[C@]2(CC1)CN(c1cnc(C(F)(F)F)nc1)C(=O)N2CC1COC1 | 7.51 | 6.52
8 | CN(C)[C@]1(c2ccccc2)CC[C@]2(CC1)CN(c1cnc(C(F)(F)F)nc1)C(=O)N2CC1CCC1 | 7.43 and 6.96 | 9.40 and 9.00
9 | CN(c1ncc(N2C[C@]3(CC[C@](c4ccccc4)(N(C)C)CC3)NC2=O)cn1)C1CCOCC1 | 5.15 | 7.92
10 | CN(C)[C@]1(c2ccccc2)CC[C@]2(CC1)CN(c1cnccn1)C(=O)N2 | 5.62 | 6.92
11 | CN(C)[C@]1(c2ccccc2)CC[C@]2(CC1)CN(c1ccc(C(N)=O)nc1)C(=O)N2 | 5.27 | 7.85
12 | CN[C@]1(c2ccccc2)CC[C@]2(CC1)CN(c1cnc(C#N)nc1)C(=O)N2CC1(C#N)CCC1 | 8.11 | 8.30
13 | CCN(C)[C@]1(c2ccccc2)CC[C@]2(CC1)CN(c1cnc(C#N)nc1)C(=O)N2CC1(C#N)CCC1 | 6.49 | 7.94
14 | CCN[C@]1(c2ccccc2)CC[C@]2(CC1)CN(c1ccccc1C#N)C(=O)N2CC1(O)CCC1 | 6.04 | 6.58
15 | Cc1noc(C)c1-c1ncc(N2C[C@]3(CC[C@](c4ccccc4)(N(C)C)CC3)NC2=O)cn1 | 5.43 | 7.89
16 | CN(CCO)C(=O)c1ncc(N2C[C@]3(CC[C@](c4ccccc4)(N(C)C)CC3)NC2=O)cn1 | 5.46 | 6.94
17 | CN(C)[C@]1(c2ccccc2)CC[C@]2(CC1)CN(c1ccc(C(F)(F)F)cn1)C(=O)N2 | 5.49 | 7.60
18 | Cc1ncc(N2C[C@]3(CC[C@](c4ccccc4)(N(C)C)CC3)N(CC3(O)CCC3)C2=O)cn1 | 7.21 | 7.92
19 | CN(C)[C@]1(c2ccccc2)CC[C@]2(CC1)CN(c1ccc(C(F)(F)F)cc1)C(=O)N2 | 5.46 | 7.24
20 | CN(C)[C@]1(c2ccccc2)CC[C@]2(CC1)CN(c1ccccc1OCC(N)=O)C(=O)N2 | 5.86 | 7.42
21 | Cc1ncc(N2C[C@]3(CC[C@](c4ccccc4)(N(C)C)CC3)NC2=O)c(N2CCC2)n1 | 5.27 | 6.59
22 | CN(C)[C@]1(c2cccs2)CC[C@]2(CC1)CN(c1cnc(C(F)(F)F)nc1)C(=O)N2 | 5.43 | 7.74

Row | SMILES | pKi (Mu-type opioid receptor) | pKi (Nociceptin receptor)
23 | CN(C)[C@]1(c2ccccc2)CC[C@]2(CC1)CN(c1cccc(S(C)(=O)=O)c1)C(=O)N2 | 6.89 | 6.84
24 | CN(C)[C@]1(c2ccccc2)CC[C@]2(CC1)CN(c1cnc3[nH]ccc3c1)C(=O)N2 | 5.94 | 7.92
25 | Cc1ccc(N2C[C@]3(CC[C@](c4ccccc4)(N(C)C)CC3)NC2=O)cc1 | 5.97 | 7.60
26 | CN(C)[C@]1(c2ccccc2)CC[C@]2(CC1)CN(c1cnc(N3CCOCC3)c(C#N)c1)C(=O)N2 | 5.40 | 8.10
27 | COCCN1C(=O)N(c2cnc(C#N)cn2)C[C@]12CC[C@](c1ccccc1)(N(C)C)CC2 | 6.29 | 7.71
28 | COc1cc(C)c(N2C[C@]3(CC[C@](c4ccccc4)(N(C)C)CC3)NC2=O)cn1 | 5.40 | 7.72
29 | CN(C)[C@]1(c2ccccc2)CC[C@]2(CC1)CN(c1cnc(-n3cc(C(F)(F)F)nn3)nc1)C(=O)N2 | 5.59 | 7.92
30 | COCCN1C(=O)N(c2cnc(C#N)nc2OC)C[C@]12CC[C@](c1ccccc1)(N(C)C)CC2 | 5.68 | 8.00
31 | CN(C)[C@]1(c2ccccc2)CC[C@]2(CC1)CN(c1ccc(C(N)=O)cc1F)C(=O)N2 | 6.06 | 7.52
32 | CN(C)[C@]1(c2ccccc2)CC[C@]2(CC1)CN(c1cnc(N3CCCC3)nc1)C(=O)N2 | 5.70 | 7.82
33 | Cc1cc(C(F)(F)F)ncc1N1C[C@]2(CC[C@](c3ccc(Cl)s3)(N(C)C)CC2)NC1=O | 5.51 | 7.29
34 | CN(C)[C@]1(c2ccccc2)CC[C@]2(CC1)CN(c1cccc(C#N)c1)C(=O)N2CC1(O)CCC1 | 7.26 | 8.33
35 | CN(C)[C@]1(c2ccccc2)CC[C@]2(CC1)CN(c1cnccn1)C(=O)N2CC1CCC1 | 6.60 | 7.85
36 | CN(C)[C@]1(c2cccs2)CC[C@@]2(CC1)CN(c1cnc(C(F)(F)F)nc1)C(=O)N2 | 8.30 | 7.96
37 | CN(C)[C@]1(c2ccccc2)CC[C@]2(CC1)CN(c1cccc(N3CCCC3)c1)C(=O)N2CC1CCC1 | 5.95 | 7.41
38 | CN(C)[C@]1(c2ccccc2)CC[C@]2(CC1)CN(c1ccc(N3CCNCC3)nc1)C(=O)N2 | 6.17 | 8.30
39 | COCCCN1C(=O)N(c2ncc(C#N)cn2)C[C@]12CC[C@](c1ccccc1)(N(C)C)CC2 | 5.99 | 7.96
40 | CCN[C@]1(c2ccccc2)CC[C@]2(CC1)CN(c1ccc(C#N)cc1OC)C(=O)N2CC1(O)CCC1 | 6.34 | 6.61
41 | CN(C)[C@]1(c2ccccc2)CC[C@]2(CC1)CN(c1ccccc1CS(C)(=O)=O)C(=O)N2 | 5.48 | 7.57
42 | CN(C)[C@]1(c2ccccc2)CC[C@]2(CC1)CN(c1ccc(N3CCOCC3)nc1)C(=O)N2 | 5.40 | 7.82
43 | CN(C)[C@]1(c2ccccc2)CC[C@]2(CC1)CN(c1c(F)cc(C#N)cc1F)C(=O)N2 | 5.20 | 7.35
44 | Cc1cc(-c2ccncc2)ncc1N1C[C@]2(CC[C@](c3ccccc3)(N(C)C)CC2)NC1=O | 5.37 | 8.10

Row | SMILES | pKi (Mu-type opioid receptor) | pKi (Nociceptin receptor)
45 | CN[C@]1(c2ccccc2)CC[C@]2(CC1)CN(c1cncnc1)C(=O)N2CC1(O)CCC1 | 6.62 | 6.82
46 | Cc1nc(N2CCS(=O)(=O)CC2)ncc1N1C[C@]2(CC[C@](c3ccccc3)(N(C)C)CC2)NC1=O | 5.37 | 7.57
47 | CN(C)[C@]1(c2ccccc2)CC[C@]2(CC1)CN(c1cnc(-c3ccccc3)nc1)C(=O)N2 | 5.25 | 7.89
48 | CN(C)[C@]1(c2ccccc2)CC[C@]2(CC1)CN(c1cnccc1C#N)C(=O)N2 | 5.33 | 7.49
49 | CN(C)[C@]1(c2ccccc2)CC[C@]2(CC1)CN(c1cnc(N3CC(F)(F)C3)nc1)C(=O)N2 | 5.27 | 7.89
50 | CN[C@]1(c2ccccc2)CC[C@]2(CC1)CN(c1cnc(C(F)(F)F)cc1C)C(=O)N2CC1CC1 | 5.99 | 7.92
51 | Cc1cccc(N2C[C@]3(CC[C@](c4ccccc4)(N(C)C)CC3)NC2=O)c1 | 5.65 | 7.06
52 | COCCOCCOCCOCCNC(=O)c1ncc(N2C[C@]3(CC[C@](c4ccccc4)(N(C)C)CC3)NC2=O)cn1 | 5.21 | 6.81
53 | CN(C)[C@]1(c2ccccc2)CC[C@]2(CC1)CN(c1ccc(-c3ccccn3)s1)C(=O)N2CC1CCC1 | 6.93 | 7.92
54 | CN(C)[C@]1(c2ccccc2)CC[C@]2(CC1)CN(c1cnc(N3CCNC(=O)C3)nc1C(F)(F)F)C(=O)N2 | 5.24 | 7.64
55 | CN(C)[C@]1(c2ccccc2)CC[C@]2(CC1)CN(c1cnccc1CS(C)(=O)=O)C(=O)N2 | 5.46 | 7.82
56 | CN(C)[C@]1(c2ccccc2)CC[C@]2(CC1)CN(c1ccc(N3CCS(=O)(=O)CC3)nc1)C(=O)N2 | 5.39 | 7.60
57 | CN[C@]1(c2ccccc2)CC[C@]2(CC1)CN(c1cnc(C#N)nc1)C(=O)N2CCOC | 6.15 | 7.07
58 | CN(C)[C@]1(c2ccccc2)CC[C@]2(CC1)CN(c1ccc(C#N)cc1)C(=O)N2CC1CCC1 | 6.49 | 8.49
59 | CN(C)[C@]1(c2ccccc2)CC[C@]2(CC1)CN(c1ncc(F)cn1)C(=O)N2 | 5.60 | 6.84
60 | CN(C)C(=O)CN1C(=O)N(c2ccccc2)C[C@]12CC[C@](c1ccccc1)(N(C)C)CC2 | 6.45 | 6.80
61 | CN(C)[C@]1(c2ccccc2)CC[C@]2(CC1)CN(c1cnc(C(=O)NCCO)nc1)C(=O)N2 | 5.77 | 7.23
62 | CCCN1C(=O)N(c2cnc(C#N)nc2)C[C@]12CC[C@](c1ccccc1)(N(C)C)CC2 | 6.99 | 8.28
63 | CN(C)[C@]1(c2ccccc2)CC[C@]2(CC1)CN(c1cncc(C#N)c1)C(=O)N2 | 5.91 | 7.17
64 | Cn1nc(C(F)(F)F)cc1N1C[C@]2(CC[C@](c3cccs3)(N(C)C)CC2)NC1=O | 5.37 | 7.89
65 | CN(C)[C@]1(c2ccccc2)CC[C@]2(CC1)CN(c1csc(-c3ccccc3)n1)C(=O)N2 | 5.65 | 6.90

Reference: ChEMBL document CHEMBL5728057, “3-((hetero-)aryl)-8-amino-2-oxo-1,3-diaza-spiro-[4.5]-decane derivatives” (2020)
